Experimental data as given in ChEMBL document CHEMBL1250552, “Quantitative structure-activity relationship studies of threo-methylphenidate analogs” (Bioorg Med Chem, 2010).
pIC50: −log10 of the molar value.

Sequences of proteins named here, by UniProt entry; tags and fusion partners are left off.
UniProt P23977, whole entry: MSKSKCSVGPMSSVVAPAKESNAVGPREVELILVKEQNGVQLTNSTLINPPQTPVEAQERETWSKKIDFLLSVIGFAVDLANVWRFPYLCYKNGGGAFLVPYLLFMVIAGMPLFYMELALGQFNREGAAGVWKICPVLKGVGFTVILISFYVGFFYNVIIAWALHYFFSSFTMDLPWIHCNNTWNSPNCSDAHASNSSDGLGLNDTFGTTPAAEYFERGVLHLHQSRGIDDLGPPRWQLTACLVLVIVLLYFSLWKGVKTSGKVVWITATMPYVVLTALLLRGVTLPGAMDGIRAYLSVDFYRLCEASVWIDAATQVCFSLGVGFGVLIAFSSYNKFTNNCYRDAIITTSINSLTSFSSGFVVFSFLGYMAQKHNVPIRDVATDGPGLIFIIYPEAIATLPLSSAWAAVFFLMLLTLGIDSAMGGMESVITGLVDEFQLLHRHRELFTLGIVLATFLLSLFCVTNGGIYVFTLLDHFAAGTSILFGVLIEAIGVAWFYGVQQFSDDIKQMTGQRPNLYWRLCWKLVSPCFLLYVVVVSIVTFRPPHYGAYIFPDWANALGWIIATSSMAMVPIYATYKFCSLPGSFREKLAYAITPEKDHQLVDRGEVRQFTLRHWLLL

Biological target: Sodium-dependent dopamine transporter (Rattus norvegicus, UniProt P23977)
Assay: Displacement of [3H]WIN 35428 from Sprague-Dawley rat striatal tissue after 2 hrs by liquid scintillation counting
Format: tissue-based, Striatum
Procedure, shortened: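 Male Sprague–Dawley rats anesthetized with CO₂ gas. Crude synaptosomal P₂ fraction made from striatum and homogenized in 25 mM sodium phosphate, pH 7.7, at 0 °C. Rapid filtration through glass microfiber filters, then scintillation counting.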

Compound `COC(=O)[C@H](c1ccc(C(C)(C)C)cc1)[C@H]1CCCCN1` has a pIC50 of 4.87.
